The values that follow come from ChEMBL document CHEMBL6120995, “Orvinol-based opioid receptor antagonist fluorinated at C(20)-pharmacophore” (2025).

Activity calls are given as the source filed them. The calls are words filed in the database; no cut-off is given here.

In this experiment the test system is Mus musculus. Nature of the experiment: Effect on tail-flick latency in male Swiss mouse administered subcutaneously and measured after 30 mins. The following applies: route sc. On the technique in general: Hot-plate and tail-flick tests time the reaction to a heat stimulus.

`C=CCN1CC[C@]23c4c5ccc(O)c4O[C@H]2[C@@]2(O)CC[C@@]3(C[C@@H]2[C@](C)(O)C(F)(F)F)[C@H]1C5`: the outcome was inactive.
